Experimental data as given in patent US20110218339A1, “Crystalline polymorph of biopterin and production method thereof” (KANEKA CORPORATION, priority 2010, published 2011).

Key:
[1] = storage stability of the crystal form (re-analysis by powder X-ray diffraction); format: physicochemical; conditions: for stability of the crystalline solid / change into other crystalline solids: ambient temperature and atmosphere, long-term storage under general conditions (avoiding direct sunlight, high temperatures and humidities); for change into a different crystal form after storage: stored at ambient temperature and pressure for 14 days
Experimental: A solution was prepared by dissolving the crude biopterin (107.0 mg, 78.1% purity) obtained in Production Example 1 in a 0.1 N aqueous solution of sodium hydroxide (20 mL) and then adding ethanol (10 mL) thereto. To the stirred solution, 0.1 N aqueous acetic acid (20 mL) was added dropwise over a period of approximately 10 minutes. The precipitated crystals were separated by filtration and dried in vacuo overnight at 40° C., to obtain 81.1 mg of biopterin crystalline solid A having a purity of 91.8%.
Hexane (20 mL) was added to the crude biopterin (103.9 mg), which was also used in Example 1, and the mixture was stirred for 6 hours so as to obtain a suspension. The crystals were separated by filtration and dried overnight at ambient temperature and pressure, to obtain 98.2 mg of biopterin crystalline solid E having a purity of 84.3%. The present crystalline solid was in the form of particles and had good filtering properties.

[2] = digital microscope observation of particle shape and diameter; format: physicochemical; conditions: digital microscope (Keyence VHX-200)
Experimental: A solution was prepared by dissolving the crude biopterin (110.9 mg), which was also used in Example 1, in a 0.1 N aqueous solution of sodium hydroxide (20 mL). To the stirred solution, 0.1 N aqueous hydrochloric acid (20 mL) was added dropwise over a period of approximately 10 minutes. The precipitated crystals were separated by filtration and dried in vacuo overnight at 40° C., to obtain 83.9 mg of biopterin crystalline solid B having a purity of 91.1%.

| Substance | change into a different crystal form after storage [1] | diameter of spherical particles [2] | other results |
| --- | --- | --- | --- |
| biopterin [Example 1] | no signs of changing into a different crystal form | – | stability of the crystalline solid / change into other crystalline solids ([1]; listed as crystalline solid A): stable |
| biopterin [Example 2] | no signs of changing into a different crystal form | approximately 25 μm | – |
| biopterin [Example 3] | – | approximately 20 μm | – |
| biopterin [Example 4] | – | approximately 10 μm | – |
| biopterin [Example 9] | no signs of changing into a different crystal form | – | stability of the crystalline solid / change into other crystalline solids ([1]; listed as crystalline solid D): stable |
| biopterin [Example 10] | changed to that of crystalline solid D | – | stability of the crystalline solid / change into other crystalline solids ([1]; listed as crystalline solid E): relatively unstable |
| biopterin [crystalline solid B] | – | – | stability of the crystalline solid / change into other crystalline solids [1]: stable |
